Laboratory results: US20190144503A1, “METHODS FOR THE IDENTIFICATION OF BIFUNCTIONAL COMPOUNDS” (Regents of the University of Minnesota, priority 2016, published 2019)

Biological target: T1, carbonic anhydrase 9 (Homo sapiens, UniProt Q16790)
T1 construct: His tag; purchased Sino Biological
Assay: Binding of purified Fn-AAZ clones to carbonic anhydrase 9 (FIG. 14A-B)
Conditions: purified clone
Description: Fn-AAZ clones selected for binding to carbonic anhydrase 9 were expressed, purified, and sequenced according to methods well-known to one of skill in the art. FIGS. 13A-C show the results of an exemplary expression and purification of an Fn-AAZ clone. As shown in FIG. 14A-B, two Fn-AAZ conjugates were further characterized following expression and purification. A first Fn-AAZ clone (Clone 0.3.10) was identified that has 10-fold higher affinity to carbonic anhydrase 9 when compared to Fn that has not been conjugated to AAZ (FIG. 14A). The sequence of the selected fibronectin type III domain of the first Fn-AAZ conjugate corresponds to SEQ ID NO:3. A second Fn-AAZ clone (Clone 0.3.9) was identified that has approximately 6-fold higher affinity to carbonic anhydrase 9 when compared to Fn that has not been conjugated to AAZ (FIG. 14B). The sequence of the selected fibronectin type III domain of the second Fn-AAZ conjugate corresponds to SEQ ID NO:4. The sequences of the selected fibronectin type III domains of several other Fn-AAZ conjugates having high affinity and selectivity for carbonic anhydrase 9 are provided in SEQ ID NOs: 5-8.

- fold higher affinity to carbonic anhydrase 9 compared to Fn that has not been conjugated to AAZ: approximately 6 fold
B1: Clone 0.3.9: purified Fn-AAZ clone: fibronectin type III domain of SEQ ID NO:4 conjugated to acetazolamide (AAZ) (conjugate)
chain: MASSSDSPRNLEVTNATPNSLTISWDDSYCVIYYRITYGETGGNSPSQEFTVPGYTNSVTISGLKPGQDYTITVYAVTDYSKLDPSNPISINYRTEIDKPSQGS
modifications: acetazolamide conjugate; Type III domain of human fibronectin
